Drawing on patent US6552079B2, “Integrin antagonists” (Eli Lilly and Company, priority 1996, dated 2003), this text covers IC50 for four molecules.

Chains of the proteins cited; added tags and fusions are not shown. Residues count along the entry.
UniProt P05106, 27-788 limits assumed: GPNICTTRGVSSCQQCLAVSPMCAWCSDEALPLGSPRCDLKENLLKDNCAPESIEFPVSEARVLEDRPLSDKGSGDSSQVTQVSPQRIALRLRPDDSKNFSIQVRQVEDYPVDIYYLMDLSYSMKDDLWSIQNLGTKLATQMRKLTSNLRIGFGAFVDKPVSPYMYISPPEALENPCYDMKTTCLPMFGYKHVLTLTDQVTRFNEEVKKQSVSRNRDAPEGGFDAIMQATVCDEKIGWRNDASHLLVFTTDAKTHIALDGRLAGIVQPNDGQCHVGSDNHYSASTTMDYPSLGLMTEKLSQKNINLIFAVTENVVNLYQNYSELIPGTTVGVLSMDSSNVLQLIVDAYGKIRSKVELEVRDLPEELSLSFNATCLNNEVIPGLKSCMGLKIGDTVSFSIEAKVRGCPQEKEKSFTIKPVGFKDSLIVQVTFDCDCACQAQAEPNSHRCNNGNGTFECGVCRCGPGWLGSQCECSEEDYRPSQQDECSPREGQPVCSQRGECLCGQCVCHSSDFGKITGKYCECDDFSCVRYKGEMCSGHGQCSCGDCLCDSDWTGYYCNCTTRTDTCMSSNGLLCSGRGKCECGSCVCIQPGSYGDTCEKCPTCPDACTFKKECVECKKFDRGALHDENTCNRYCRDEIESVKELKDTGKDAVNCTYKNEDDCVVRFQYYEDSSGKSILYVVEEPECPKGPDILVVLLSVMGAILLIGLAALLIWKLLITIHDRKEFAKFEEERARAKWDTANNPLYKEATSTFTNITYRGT
UniProt P06756, 31-889 limits assumed: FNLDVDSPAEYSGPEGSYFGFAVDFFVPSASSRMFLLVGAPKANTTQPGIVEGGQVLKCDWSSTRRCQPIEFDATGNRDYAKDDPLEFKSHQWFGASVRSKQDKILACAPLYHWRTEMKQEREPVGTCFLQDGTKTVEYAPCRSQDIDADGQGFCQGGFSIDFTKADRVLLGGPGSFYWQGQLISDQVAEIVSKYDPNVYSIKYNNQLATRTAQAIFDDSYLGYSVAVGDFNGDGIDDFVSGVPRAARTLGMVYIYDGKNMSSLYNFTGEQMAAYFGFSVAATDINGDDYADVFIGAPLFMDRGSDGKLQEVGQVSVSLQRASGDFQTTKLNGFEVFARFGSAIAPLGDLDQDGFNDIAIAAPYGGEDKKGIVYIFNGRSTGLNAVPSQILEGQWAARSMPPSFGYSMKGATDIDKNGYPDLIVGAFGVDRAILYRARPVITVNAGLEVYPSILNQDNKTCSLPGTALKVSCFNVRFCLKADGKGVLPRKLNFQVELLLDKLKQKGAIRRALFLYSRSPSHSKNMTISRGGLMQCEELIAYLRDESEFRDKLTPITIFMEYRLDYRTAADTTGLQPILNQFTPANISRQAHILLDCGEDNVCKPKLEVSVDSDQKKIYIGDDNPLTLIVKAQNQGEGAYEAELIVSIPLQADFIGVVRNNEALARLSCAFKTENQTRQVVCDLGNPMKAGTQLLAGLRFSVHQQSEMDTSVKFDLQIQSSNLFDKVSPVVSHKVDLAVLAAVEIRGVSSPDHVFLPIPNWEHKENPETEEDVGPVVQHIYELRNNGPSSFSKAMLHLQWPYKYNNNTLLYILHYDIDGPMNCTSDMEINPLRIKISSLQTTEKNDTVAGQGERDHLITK
UniProt P06756, 891-1048 partner limits assumed: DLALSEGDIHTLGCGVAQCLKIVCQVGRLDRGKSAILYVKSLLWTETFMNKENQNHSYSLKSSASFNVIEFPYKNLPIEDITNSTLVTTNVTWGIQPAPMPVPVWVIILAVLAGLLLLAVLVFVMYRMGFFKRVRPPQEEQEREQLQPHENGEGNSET
UniProt P08514, 32-887 limits assumed: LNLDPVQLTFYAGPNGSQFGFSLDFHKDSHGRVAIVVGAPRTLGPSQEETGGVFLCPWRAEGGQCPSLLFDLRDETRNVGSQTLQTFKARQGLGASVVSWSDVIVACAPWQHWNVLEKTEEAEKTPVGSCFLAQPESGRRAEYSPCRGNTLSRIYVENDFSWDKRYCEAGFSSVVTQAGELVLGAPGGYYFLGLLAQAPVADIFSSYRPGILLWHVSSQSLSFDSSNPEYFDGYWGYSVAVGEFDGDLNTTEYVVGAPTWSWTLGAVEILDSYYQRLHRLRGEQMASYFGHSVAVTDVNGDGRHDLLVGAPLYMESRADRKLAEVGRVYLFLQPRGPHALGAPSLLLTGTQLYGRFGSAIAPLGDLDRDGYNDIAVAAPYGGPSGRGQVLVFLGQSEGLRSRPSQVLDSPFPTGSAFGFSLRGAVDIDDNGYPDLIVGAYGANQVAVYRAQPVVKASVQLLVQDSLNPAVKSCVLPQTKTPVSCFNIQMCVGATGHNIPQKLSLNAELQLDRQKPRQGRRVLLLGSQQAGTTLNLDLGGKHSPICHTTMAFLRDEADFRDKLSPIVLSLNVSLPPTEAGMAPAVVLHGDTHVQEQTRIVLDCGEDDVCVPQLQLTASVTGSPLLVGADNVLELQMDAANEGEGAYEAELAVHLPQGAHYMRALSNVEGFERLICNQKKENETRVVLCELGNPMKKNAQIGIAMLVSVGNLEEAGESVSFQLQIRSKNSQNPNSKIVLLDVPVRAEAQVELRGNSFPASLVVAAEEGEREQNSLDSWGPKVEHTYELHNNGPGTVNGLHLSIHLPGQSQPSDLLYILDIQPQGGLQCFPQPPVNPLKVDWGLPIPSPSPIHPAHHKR
UniProt P08514, 891-1039 partner limits assumed: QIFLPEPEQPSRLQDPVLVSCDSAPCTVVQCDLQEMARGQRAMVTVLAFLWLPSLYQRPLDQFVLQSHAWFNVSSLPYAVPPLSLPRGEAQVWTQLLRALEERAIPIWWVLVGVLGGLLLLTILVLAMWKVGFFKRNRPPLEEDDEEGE

The test system of test [1] is ADP-induced aggregation of human platelets (PRP). The experiment in a line: Platelet aggregation assay (Aggregation-Human/PRP/ADP). The following applies: read-out: PRP (IC50 μM); human platelet rich plasma, ADP 20 μM. As for the experimental part: In addition to the ELISA integrin binding assays described above, the Aggregation-Human/PRP/ADP Assay is useful for evaluating therapeutic compounds.
Platelet rich plasma (PRP) is prepared from healthy human volunteers for use in determining inhibition of platelet aggregation by compounds. Blood was collected via a 21 gauge butterfly cannula, using a two-syringe technique into 1/10 volume of […] trisodium citrate.
Platelet rich plasma was prepared at room temperature by centrifugation of the citrated whole blood at 100×g for 15 minutes. The PRP contained approximately 200-400,000 platelets/μl. Platelet poor plasma was prepared by centrifugation of citrated whole blood at 12,000×g for 2 minutes.
Platelet aggregation was assayed in a Chrono-log whole blood aggregometer (Chrono-log Corporation, Havertown, Pa.) using the PRP prepared above according to the manufacturers directions. Inhibition of platelet aggregation was studied by adding varying amounts of test materials followed by adenosine diphosphate (ADP, 20 μM) to stirred human PRP. Specifically, the human PRP was incubated with the compound for 1-2 min. at 37° C. prior to addition of the aggregating agent ADP.

The target of test [2] is vitronectin receptor, αvβ3 (Homo sapiens, UniProt P05106+P06756). The test can be described thus: αvβ3 ELISA purified integrin binding assay (vitronectin binding). As to conditions: read-out: αvβ3 ELISA (IC50 μM); inhibition of biotinylated vitronectin binding to immobilized purified αvβ3. Here is the method:
(§1) In the following assays, GPIIb-IIIa and vitronectin receptor, αvβ3 were prepared in purified form, by methods described in Fitzgerald, L. A., et al., Anal Biochem (1985) 151: 169-177 and Smith, J. W., J. Biol Chem (1988) 263: 18726-18731 (the disclosure of which is incorporated herein by reference). GPIIb-IIIa or vitronectin receptor, αvβ3, are coated onto microtiter plates. The coated support is then contacted with fibrinogen for the GPIIb-IIIa assay, or is contacted with vitronectin for the vitronectin receptor, αvβ3 and with test materials and incubated for sufficient time to reach maximal ligand binding to immobilized integrins. The adhesive ligands fibrinogen or vitronectin were typically provided at a concentration of 2-50 nM and the test material can, if desired, be added at a series of diultions. Typical incubations were 2-4 hr at 25° C., the time and temperature being interdependent.
(§2) Purified platelet GPIIb-IIIa was prepared by Fitzgerald, L. A., et al., Anal Biochem 151:169-177 (1985). Vitronectin receptor, αvβ3, was prepared as described by Smith, J. W., J. Biol Chem (1988) 263: 18726-18731. After purification, the receptors were each stored in 0.1% Triton X-100 at 0.1-1.0 mg/ml.
(§3) The receptors were coated to the wells of 96-well flat-bottom enzyme-linked immunoassay (ELISA) plates (Linbro EIA-Plus microtiter plate, Flow Laboratories) after diluting 1:200 with a solution of 20 mM Tris-HCl, 150 mM NaCl, 1 mM CaCl2, pH 7.4 to reduce the Triton X-100 concentration to below its critical micellar concentration and adding an aliquot of 100 μl to each well. The wells were allowed to incubate overnight at 4° C., and then aspirated to dryness. Additional sites were blocked by the addition of bovine serum albumin (BSA) at 35 mg/ml in the above buffer for 2 hr at 30° C. to prevent non-specific binding. The wells were then washed once with binding buffer ([…] Tris-HCl, 100 mM NaCl, 2 mM CaCl2, 1 mg/ml BSA).
(§4) The corresponding ligands (fibrinogen, von Willebrand Factor, or vitronectin) were conjugated to biotin using commercially available reagents and standard protocols. The labeled ligands were added to the receptor-coated wells at a final concentration of 2-10 nM (100 μl/well) and incubated for 3 hr at 25° C. in the presence or absence of test samples. After incubation, the wells were aspirated to dryness and bound ligand containing biotin label was quantitated.
(§5) The bound protein was detected by the addition of anti-biotin antibody conjugated to alkaline phosphatase followed by addition of substrate (p-nitrophenyl […] phosphate), and determination of the optical density of each well at […].
(An ELISA detects its analyte on a solid surface through an enzyme-linked reagent.)

For test [3], the target named is GPIIb-IIIa (Homo sapiens, UniProt P05106+P08514). The experiment in a line: GPIIb-IIIa ELISA purified integrin binding assay (fibrinogen binding). As to conditions: read-out: GPIIbIIIa ELISA (IC50 μM); inhibition of biotinylated fibrinogen binding to immobilized purified platelet GPIIb-IIIa. As for the experimental part: as §1, §2, §3, §4, §5

Molecules are shown by their SMILES.

As usually defined, the IC50 is the concentration needed to halve the response being measured. In the case of `N=C(N)NCCCCC(=O)N1CCC(C(=O)NCC(NS(=O)(=O)c2ccccc2)C(=O)O)CC1` (stereo not drawn), the IC50 was 0.22 µM in test [1], 3 µM in test [2] and 0.08 µM in test [3].
Taken in the same sequence, the figures for `O=C(CNC(=O)C1CCCNC1)NCC(NS(=O)(=O)c1ccccc1)C(=O)O` (stereo not drawn) were 122 µM, 40 µM and 10 µM.
Consider `N=C(N)NCCCC(=O)NC[C@H]1CC[C@H](C(=O)NCC(NS(=O)(=O)c2ccccc2)C(=O)O)CC1` (stereo partly drawn), for which the IC50 in test [1] came to 0.55 µM; in test [2], 15 µM; in test [3], 0.075 µM.
Regarding `CCCCS(=O)(=O)NC(CNC(=O)CCNC(=O)CCCNC(=N)N)C(=O)O` (stereo not drawn), the IC50 is 4.9 µM in test [1], 0.9 µM in test [2] and 0.8 µM in test [3].
